Literature values in patent US20100255118A1, “ORAL ZINC MEDICANTS USEFUL FOR SAFELY LOWERING FREE COPPER ABSORPTION AND FREE COPPER LEVELS” (priority 2007, published 2010).

Details: infants at one month of age, supplemented with 80 μg Cu/kg daily for 15 days, oral

Substance: copper sulfate
- Mean (+SD) copper absorption: 74.8+15.2%
